In the test the target is Urokinase-type plasminogen activator (Homo sapiens, UniProt P00749).

For `N=C(N)c1ccc2nc(Cc3nc4ccc(C(=N)N)cc4[nH]3)[nH]c2c1`, the Ki (commonly a dissociation constant, usually derived from enzyme kinetics or from competition with a known ligand) was 2300 nM.

These data come from BindingDB's records for doi:10.1021/jm061066t (Pfizer, 2007).
